Test results taken from ChEMBL document CHEMBL6071183, “Neuroprotective Effect of 2-(Benzyloxy)arylureas Is Not Related to CypD Inhibition nor Suppression of mPTP Opening” (ACS Med Chem Lett, 2024).
Calls of active or inactive are those of the source. The rule behind the calls is not given here.

Amino acid sequences for entries named in this document (tags omitted).
UniProt P62937, whole entry, looked up: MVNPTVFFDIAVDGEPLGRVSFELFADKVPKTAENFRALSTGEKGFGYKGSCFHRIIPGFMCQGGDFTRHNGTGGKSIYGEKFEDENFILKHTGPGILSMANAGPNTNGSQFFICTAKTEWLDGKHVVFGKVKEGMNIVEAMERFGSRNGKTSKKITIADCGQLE

How the values were obtained:
[1] = biological target: T1, Peptidyl-prolyl cis-trans isomerase A (Homo sapiens, UniProt P62937); assay: Binding affinity to human N-terminal his-tagged CypA extracted from Escherichia coli BL21 (DE3) assessed as change in melting temperature at 20 uM by differential scanning fluorimetry analysis
[2] = Neurotoxicity in Abeta-induced C57BL/6 mouse at 5 uM by JC-1 assay relative to control; type: toxicity; conditions: in vivo
[3] = biological target: T1, Peptidyl-prolyl cis-trans isomerase A; assay: Inhibition of human N-terminal his-tagged CypA extracted from Escherichia coli BL21 (DE3) assessed as refolding of RNAase T1 at 20 uM by fluorescence based spectrofluorometry analysis relative to control

inhibition [3] [%]	Compound	Activity [1]	Activity [2] [%]
	O=C(Nc1ccccc1F)Nc1ncccc1OCc1cccc(Cl)c1	Active	89
	Cc1ccc(NC(=S)Nc2nccnc2OCc2cccc(F)c2)cc1		95
90	O=C(NCCN1CCNCC1)Nc1ncccc1OCc1ccccc1		
90	O=C(Nc1ccc([N+](=O)[O-])cc1)Nc1ncccc1OCc1cccc(Cl)c1		
90	O=C(Nc1ccc([N+](=O)[O-])cc1)Nc1ncccc1OCc1ccccc1	Active	
